Molecular target: Serotonin 5HT7 receptors (Homo sapiens (Human), UniProt P34969)
Experiment: Radiolabel Binding Studies for Serotonin 5HT7 receptors
Conditions: membranes of cells expressing recombinant 5HT7 receptors
Method: Radiolabel Binding Studies for Serotonin 5HT7 receptors, method 1:
A similar stock of the reference compound chlorpromazine is also prepared as a positive control. Eleven dilutions (5× assay concentration) of the compound of the disclosure and chlorpromazine are prepared in the Assay Buffer by serial dilution to yield final corresponding assay concentrations ranging from 10 pM to 10 μM.
A stock concentration of 5 nM [^3H]LSD (lysergic acid diethyl amide) is prepared in 50 mM Tris-HCl, 10 mM MgCl2, 1 mM EDTA, pH 7.4 (Assay Buffer). Aliquots (50 μl) of radioligand are dispensed into the wells of a 96-well plate containing 100 μl of Assay Buffer. Duplicate 50-μl aliquots of the compound of the disclosure test and chlorpromazine positive control reference compound serial dilutions are added.
Membrane fractions of cells expressing recombinant 5HT7 receptors (50 μL) are dispensed into each well. […]
The 250-μl reactions are incubated at room temperature for 1.5 hours, then harvested by rapid filtration onto 0.3% polyethyleneimine-treated, 96-well filter mats using a 96-well Filtermate harvester. […] The filter mats are dried, then scintillant is added to the filters and the radioactivity retained on the filters is counted in a Microbeta scintillation counter. […]

O=C1OC(CCN2CCN(c3ccc4[nH]ccc4c3)CC2)CC12CCCC2 (stereo not shown) [Entry 160147]
IC50: 56 nM

From US10544117B2, “5-hydroxytryptamine receptor 7 activity modulators and their method of use” (Temple University—Of the Commonwealth System of Higher …, priority 2014, dated 2020)
